{"source": "PubChem BioAssay AID1457", "about": "(National Center for Advancing Translational Sciences (NCATS), 2008)", "note": "Only a part is listed here, and it is no random draw. Some structures show a salt or complex split into parts, the way the source records it. Calls of active or inactive are those of the source. The call rests on the fitted dose curve; in most records, active means well fitted inhibition curve with a large enough effect; inconclusive means small, poorly fitted or top-dose-only effect; inactive means no such curve, though single readings can be large or run the other way."}
{"experiment": "qHTS Assay for Identifying the Cell-Membrane Permeable IMPase Inhibitors: Potentiation with Lithium;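 further: IP1 builds up when IMPase is blocked and the TR-FRET signal falls; plate controls were basal vehicle for no effect and high inhibitor control for full effect; nearly all actives have a fitted effect of over 50% in size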", "conditions": "CHO-M1 cells, IP1 TR-FRET (IP-One), carbachol + lithium; at 59.4 µM (top of the series) unless noted"}
{"smiles": "CCN(CC)CCCOC(=O)C(O)(c1ccccc1)c1ccccc1", "activity, negative = IMPase inhibition": "inactive: 23.7%"}
{"smiles": "O=[N+]([O-])[O-].[NH4+]", "activity, negative = IMPase inhibition": "inactive: -0.202%"}
{"smiles": "Cc1cccc(C)c1OP(C)(N)=O", "note": "(configuration not stated)", "activity, negative = IMPase inhibition": "inactive: 3.61%"}
{"smiles": "CC(C)(C)c1ccc(OP(C)(=O)Nc2ccc(SC(F)(F)F)cc2)cc1", "note": "(configuration not stated)", "activity, negative = IMPase inhibition": "inactive: 3.3%"}
{"smiles": "O=[N+]([O-])c1ccc2c(c1)C=Nc1ccccc1O2", "activity, negative = IMPase inhibition": "inactive: -6.49%"}
{"smiles": "CCOC(=O)c1ccc(NP(C)(=O)Oc2ccccc2)cc1", "note": "(configuration not stated)", "activity, negative = IMPase inhibition": "inactive: -5.26%"}
{"smiles": "Cc1ccc(NP(C)(=O)Oc2ccccc2)c(C)c1", "note": "(configuration not stated)", "activity, negative = IMPase inhibition": "inactive: 38.5% [at 38.3 µM]"}
{"smiles": "COc1ccccc1OP(C)(=O)Nc1ccc(C)cc1", "note": "(configuration not stated)", "activity, negative = IMPase inhibition": "inactive: -9.42% [at 38.3 µM]"}
{"smiles": "COc1ccc(OP(C)(=O)Nc2cccc(F)c2)cc1", "note": "(configuration not stated)", "activity, negative = IMPase inhibition": "inactive: -1.07% [at 38.3 µM]"}
{"smiles": "COc1ccccc1OP(C)(=O)Nc1cc(Cl)ccc1C", "note": "(configuration not stated)", "activity, negative = IMPase inhibition": "inactive: 13.3%"}
{"smiles": "Cc1cc(C)cc(OP(C)(N)=O)c1", "note": "(configuration not stated)", "activity, negative = IMPase inhibition": "inactive: -14.6%"}
{"smiles": "N1=C(c2nnc(-c3nn[nH]n3)nn2)NNN1", "activity, negative = IMPase inhibition": "inactive: -6.61%"}
{"smiles": "CP(=S)(Nn1cnnc1)Oc1ccccc1", "note": "(configuration not stated)", "activity, negative = IMPase inhibition": "inactive: 7.84% [at 38.3 µM]"}
{"smiles": "COc1ccccc1OP(C)(=O)Nc1ccccc1", "note": "(configuration not stated)", "activity, negative = IMPase inhibition": "inactive: -5.6%"}
{"smiles": "CP(=O)(Nc1ccccc1Br)Oc1ccccc1", "note": "(configuration not stated)", "activity, negative = IMPase inhibition": "inactive: -5.49%"}
{"smiles": "[Au].[Au].c1ccc([PH+](c2ccccc2)c2ccccc2)cc1.c1ccc([PH+](c2ccccc2)c2ccccc2)cc1.n1n[nH]c(-c2nnn[nH]2)n1", "activity, negative = IMPase inhibition": "inactive: -2.09%"}
{"smiles": "CP(=O)(Oc1ccccc1)OC(c1ccccc1)C(F)(F)F", "note": "(configuration not stated)", "activity, negative = IMPase inhibition": "inactive: 2.7%"}
{"smiles": "Cc1cccc(C)c1OP(C)(=O)Nc1ccc(SC(F)(F)F)cc1", "note": "(configuration not stated)", "activity, negative = IMPase inhibition": "inactive: 8.47%"}
{"smiles": "Cc1cc(C)cc(OP(C)(=O)Nc2ccc(SC(F)(F)F)cc2)c1", "note": "(configuration not stated)", "activity, negative = IMPase inhibition": "inactive: 4.06%"}
{"smiles": "CP(=O)(NC(=O)Nc1ccccc1)Oc1ccccc1", "note": "(configuration not stated)", "activity, negative = IMPase inhibition": "inactive: -2.85% [at 38.3 µM]"}
{"smiles": "CCOP(C)(=S)SCC(=O)NC(C)C(=O)O", "note": "(configuration not stated)", "activity, negative = IMPase inhibition": "inactive: -0.158% [at 38.3 µM]"}
{"smiles": "CCOC(=O)c1ccc(NP(C)(=O)Oc2ccc(OC)cc2)cc1", "note": "(configuration not stated)", "activity, negative = IMPase inhibition": "inactive: 2.98%"}
{"smiles": "CP(=O)(Nc1ccccn1)Oc1ccc(Cl)cc1", "note": "(configuration not stated)", "activity, negative = IMPase inhibition": "inactive: -14.4% [at 38.3 µM]"}
{"smiles": "O=[N+]([O-])c1cc([N+](=O)[O-])c(-n2nnc3ccccc32)c([N+](=O)[O-])c1", "activity, negative = IMPase inhibition": "inactive: 9.43%"}
{"smiles": "COc1ccccc1OP(C)(=O)Nc1c(C)cccc1C", "note": "(configuration not stated)", "activity, negative = IMPase inhibition": "inactive: 1.45% [at 38.3 µM]"}
{"smiles": "CN1CCCCC1COC(=O)C1(O)c2ccccc2CCc2ccccc21", "note": "(configuration not stated)", "activity, negative = IMPase inhibition": "inactive: 1.95%"}
{"smiles": "CCCOc1ccc(NP(C)(=O)Oc2ccc(Cl)cc2)cc1", "note": "(configuration not stated)", "activity, negative = IMPase inhibition": "inactive: 19.3%"}
{"smiles": "CP(=O)(Nc1ccc(SC(F)(F)F)cc1)Oc1ccccc1", "note": "(configuration not stated)", "activity, negative = IMPase inhibition": "inactive: -5.44%"}
{"smiles": "O=[N+]([O-])c1cccc([N+](=O)[O-])c1", "activity, negative = IMPase inhibition": "inactive: -23.3%"}
{"smiles": "Cc1ccc([N+](=O)[O-])cc1[N+](=O)[O-]", "activity, negative = IMPase inhibition": "inactive: 9.8%"}
{"smiles": "O=[N+]([O-])OCC(CO[N+](=O)[O-])(CO[N+](=O)[O-])CO[N+](=O)[O-]", "activity, negative = IMPase inhibition": "inactive: 0.143%"}
{"smiles": "CC1=NCCc2c1[nH]c1ccccc21.O=[N+]([O-])c1cc([N+](=O)[O-])c(O)c([N+](=O)[O-])c1", "activity, negative = IMPase inhibition": "inactive: -3.45%"}
{"smiles": "Cc1cc(C)cc(OP(C)(=O)Nc2ccc(C)cc2C)c1", "note": "(configuration not stated)", "activity, negative = IMPase inhibition": "inactive: 22.8% [at 38.3 µM]"}
{"smiles": "CCOC(=O)c1ccc(NP(C)(=O)Oc2cc(C)cc(C)c2)cc1", "note": "(configuration not stated)", "activity, negative = IMPase inhibition": "inactive: 11.9%"}
{"smiles": "Cc1cc(C)cc(OP(C)(=O)Nc2ccccn2)c1", "note": "(configuration not stated)", "activity, negative = IMPase inhibition": "inactive: 25% [at 38.3 µM]"}
{"smiles": "CP(=O)(Nc1cccc(Br)c1)Oc1ccccc1", "note": "(configuration not stated)", "activity, negative = IMPase inhibition": "inactive: 16.3%"}
{"smiles": "Cc1ccc(C)c(NP(C)(=O)Oc2ccccc2)c1", "note": "(configuration not stated)", "activity, negative = IMPase inhibition": "inactive: 9.41% [at 38.3 µM]"}
{"smiles": "CC(C)c1ccc(OP(C)(=O)Nc2ccc(SC(F)(F)F)cc2)cc1", "note": "(configuration not stated)", "activity, negative = IMPase inhibition": "inactive: -1.05%"}
{"smiles": "CP(=O)(Nc1ccccc1F)Oc1ccccc1", "note": "(configuration not stated)", "activity, negative = IMPase inhibition": "inactive: -4.72% [at 38.3 µM]"}
{"smiles": "O=C(OCCN1CCN(CCOCc2ccccc2)CC1)C(O)(c1ccccc1)c1ccccc1", "activity, negative = IMPase inhibition": "inactive: 17.5%"}
{"smiles": "Cc1cccc([N+](=O)[O-])c1[N+](=O)[O-]", "activity, negative = IMPase inhibition": "inactive: 8.88%"}
{"smiles": "CCC(C)(OO)OOC(C)(CC)OO", "note": "(configuration not stated)", "activity, negative = IMPase inhibition": "inactive: 4.47%"}
{"smiles": "COc1ccc(OP(C)(=O)Nc2ccc(SC(F)(F)F)cc2)cc1", "note": "(configuration not stated)", "activity, negative = IMPase inhibition": "inactive: -0.877%"}
{"smiles": "CCOC(=O)c1ccc(NP(C)(=O)Oc2ccc(F)cc2)cc1", "note": "(configuration not stated)", "activity, negative = IMPase inhibition": "inactive: -9.61%"}
{"smiles": "CCN(CC)CCCOC(=O)C(O)(c1ccccc1)C1CCCCC1", "note": "(configuration not stated)", "activity, negative = IMPase inhibition": "inactive: 36%"}
{"smiles": "CP(=O)(Nc1ccccc1)Oc1ccc(F)cc1", "note": "(configuration not stated)", "activity, negative = IMPase inhibition": "inactive: -12.9% [at 38.3 µM]"}
{"smiles": "COc1ccc(NP(C)(=O)Oc2ccccc2OC)cc1", "note": "(configuration not stated)", "activity, negative = IMPase inhibition": "inactive: 5.7%"}
{"smiles": "CN(C)CCOC(=O)C(O)(c1ccccc1)C1CCCCC1", "note": "(configuration not stated)", "activity, negative = IMPase inhibition": "inactive: 41.3% [at 38.3 µM]"}
{"smiles": "Cc1ccc([N+](=O)[O-])c([N+](=O)[O-])c1", "activity, negative = IMPase inhibition": "inactive: 4.45%"}
{"smiles": "Cc1c([N+](=O)[O-])cccc1[N+](=O)[O-]", "activity, negative = IMPase inhibition": "inactive: -10.9%"}
{"smiles": "CCOP(=O)(CC)OCC", "activity, negative = IMPase inhibition": "inactive: 13.5%"}
{"smiles": "CCOP(C)(=S)SCC(=O)NC(C)(CC)C(=O)O", "note": "(configuration not stated)", "activity, negative = IMPase inhibition": "inactive: 10.8% [at 38.3 µM]"}
{"smiles": "CP(=O)(Nc1ccc2c(c1)OCCO2)Oc1ccccc1", "note": "(configuration not stated)", "activity, negative = IMPase inhibition": "inactive: 2.33%"}
{"smiles": "NNC(NN)NN.n1nc(-c2nn[nH]n2)n[nH]1", "activity, negative = IMPase inhibition": "inactive: 1.3%"}
{"smiles": "[NH4+].[O-][Cl+3]([O-])([O-])[O-]", "activity, negative = IMPase inhibition": "inactive: -9.35%"}
{"smiles": "Cc1ccccc1NP(C)(=O)Nc1ccccc1C", "activity, negative = IMPase inhibition": "inactive: 9.18% [at 38.3 µM]"}
{"smiles": "CCN(CCCl)Cc1ccccc1C", "activity, negative = IMPase inhibition": "inactive: 35.6%"}
{"smiles": "N#[O+].[C-]#N.[C-]#N.[C-]#N.[C-]#N.[C-]#N.[Fe+2].[Na+].[Na+]", "activity, negative = IMPase inhibition": "inactive: 11.8%"}
{"smiles": "COc1ccc(OP(C)(=O)Nc2ccc(Br)cc2)cc1", "note": "(configuration not stated)", "activity, negative = IMPase inhibition": "inactive: -1.84%"}
{"smiles": "CCN(CC)CC(O)COC(=O)C(O)(c1ccccc1)C1CCCCC1", "note": "(configuration not stated)", "activity, negative = IMPase inhibition": "inactive: 17.9% [at 38.3 µM]"}
{"smiles": "CCc1ccc(OP(C)(=O)Nc2cccnc2)cc1", "note": "(configuration not stated)", "activity, negative = IMPase inhibition": "inactive: 4.2%"}
{"smiles": "CP(=O)(Oc1ccccc1)N1CCOC1=O", "note": "(configuration not stated)", "activity, negative = IMPase inhibition": "inactive: -20.8% [at 38.3 µM]"}
